The source of these data is PMC12084609, “Structural insights into small-molecule agonist recognition and activation of complement receptor C3aR” (The EMBO Journal, 2025).

For the assay, the target named is T1, C3aR WT (Homo sapiens, UniProt Q16581).
T1 construct: expressed in transfected cells; host or cells: HEK293T
T1 sequence (Q16581 1-482): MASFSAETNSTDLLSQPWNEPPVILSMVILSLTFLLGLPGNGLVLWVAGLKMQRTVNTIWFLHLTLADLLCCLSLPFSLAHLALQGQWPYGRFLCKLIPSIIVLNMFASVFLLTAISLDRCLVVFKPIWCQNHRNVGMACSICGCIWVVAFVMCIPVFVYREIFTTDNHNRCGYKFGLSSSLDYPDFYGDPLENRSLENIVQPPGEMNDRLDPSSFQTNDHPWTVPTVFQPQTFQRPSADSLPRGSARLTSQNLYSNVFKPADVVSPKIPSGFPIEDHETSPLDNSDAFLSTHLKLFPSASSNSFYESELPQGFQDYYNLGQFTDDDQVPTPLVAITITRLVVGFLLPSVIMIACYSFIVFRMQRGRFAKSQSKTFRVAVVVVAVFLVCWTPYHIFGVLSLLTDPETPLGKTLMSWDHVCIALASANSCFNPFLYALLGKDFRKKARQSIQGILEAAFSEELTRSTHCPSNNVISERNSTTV
Kind of assay: GloSensor-based cAMP assay, WT C3aR (HEK293T). It is filed as cell-based. The conditions noted are these: for remaining activity at 1 µM: Log[ligand (M)] -6; for remaining activity at 0.001 µM: Log[ligand (M)] -9; for remaining activity at 0.0001 µM: Log[ligand (M)] -10; for remaining activity at 10 pM: Log[ligand (M)] -11; for pIC50 ± SEM (Mean) / pIC50 Value / IC50: WT C3aR; for pIC50 ± SEM (Mean): 1 μM Forskolin, mean of independent experiments; for pIC50 Value / IC50 / Span Value: Figure EV1B numerical data; for pIC50 Value: curve fit; for IC50: concentrations of the table as Log[ligand (M)]; for Span Value: span of cAMP response (% Forskolin) curve. The method, then:
HEK293T cells were seeded on 6-well plates (NEST) and transfected with pGlosensor™-22F plasmids (Promega) and pcDNA3.1 plasmids encoding C3aR or its mutants an with N-terminal FLAG tag. After 48 h, cells were detached with Accutase solution (Sigma-Aldrich) and washed with PBS, and resuspended in assay buffer (CO2-independent medium with 0.5 mg mL^−1D-luciferin). 100,000–200,000 cells were seeded on 96-well white bottom plates (SPL) and incubated at 37 °C for 45 min followed by 45 min incubation at room temperature. After 90 min of incubation, basal luminescence signals were recorded. In total, 25 μl of test ligand with various concentrations and 1 μM Forskolin (Sigma-Aldrich) were treated to the cells and luminescence signals were measured by Tristar 2 LB 942 multimode reader (Berthold). […] Relative luminescence unit (%) was calculated with the signal of wells treated with vehicle as 0% and the signal of wells treated with 1 μM Forskolin as 100% (DiRaddo et al, [2014]). Nonlinear regression was performed using a three-parameter logistic equation.

[1] abbreviates: HEK-293T, individual replicates, read-out: cAMP response (% Forskolin).

What is called IC50 is the concentration needed to halve the response being measured. For the compound `CC(C)C[C@H](NC(=O)CNC(=O)[C@H](CC(C)C)NC(=O)[C@H](Cc1c[nH]cn1)NC(=O)[C@H](CO)NC(=O)[C@H](C)NC(=O)[C@H](CCCNC(=N)N)NC(=O)[C@H](C)NC(=O)[C@H](Cc1c[nH]cn1)NC(=O)[C@H](CCC(N)=O)NC(=O)[C@H](CCCNC(=N)N)NC(=O)[C@H](CCCNC(=N)N)NC(=O)[C@@H](N)CC(C)C)C(=O)N[C@@H](C)C(=O)N[C@@H](CCCNC(=N)N)C(=O)O` [C3a 63-77, reference compound], the “pIC50 ± SEM (Mean)” value was determined as 7.31 ± 0.12, the “pIC50 Value” is 7.70, the IC50 was found to be 1.99e-08 M and the “Span Value” is on record as 87.38. In addition, under setting [1], the remaining activity at 1 µM was 17%, the remaining activity at 0.001 µM is 96%, the remaining activity at 0.0001 µM is 105% and the remaining activity at 10 pM worked out at 99.7%. In addition, for the setting “HEK-293T, Log[ligand (M)] -7, individual replicates, read-out: cAMP response (% Forskolin)”, the remaining activity at 0.1 µM is 30.4%.
In the case of `CSCC[C@H](NC(=O)[C@@H]1CCCN1C(=O)[C@H](CCCCN)NC(=O)[C@H](Cc1ccccc1)NC(=O)[C@H](CO)NC(=O)[C@@H](N)Cc1ccc(O)cc1)C(=O)N1CCC[C@H]1C(=O)N[C@@H](CC(C)C)C(=O)N[C@H](C)C(=O)N[C@@H](CCCNC(=N)N)C(=O)O` [EP54, reference compound], the “pIC50 ± SEM (Mean)” value is 8.27 ± 0.07, the “pIC50 Value” stood at 8.25, it took 5.56e-09 M to reach half-maximal inhibition (IC50) and the “Span Value” is reported as 86.79. Also, under setting [1], the remaining activity at 1 µM stood at 15.8%, the remaining activity at 0.001 µM was 86.1%, the remaining activity at 0.0001 µM came to 96.2% and the remaining activity at 10 pM was 101%. In addition, the remaining activity at 0.01 µM (HEK-293T, Log[ligand (M)] -8, individual replicates, read-out: cAMP response (% Forskolin)) was found to be 50.9%.
